From US7122651B1, “Nucleic acid molecules encoding opioid growth factor receptors” (priority 1998, dated 2006) come the findings set out here.

Where only a bound is given, the exact number is not on record here.

The test deals with T1, nuclear homogenates of human pancreatic tumor cells (PANC-1) (Homo sapiens, UniProt Q9NZT2).
T1 construct: host or cells: PANC-1; nuclear (P1) homogenates, and P2, P3 and S3 fractions in the fractionation study
T1 sequence (Q9NZT2 1-677): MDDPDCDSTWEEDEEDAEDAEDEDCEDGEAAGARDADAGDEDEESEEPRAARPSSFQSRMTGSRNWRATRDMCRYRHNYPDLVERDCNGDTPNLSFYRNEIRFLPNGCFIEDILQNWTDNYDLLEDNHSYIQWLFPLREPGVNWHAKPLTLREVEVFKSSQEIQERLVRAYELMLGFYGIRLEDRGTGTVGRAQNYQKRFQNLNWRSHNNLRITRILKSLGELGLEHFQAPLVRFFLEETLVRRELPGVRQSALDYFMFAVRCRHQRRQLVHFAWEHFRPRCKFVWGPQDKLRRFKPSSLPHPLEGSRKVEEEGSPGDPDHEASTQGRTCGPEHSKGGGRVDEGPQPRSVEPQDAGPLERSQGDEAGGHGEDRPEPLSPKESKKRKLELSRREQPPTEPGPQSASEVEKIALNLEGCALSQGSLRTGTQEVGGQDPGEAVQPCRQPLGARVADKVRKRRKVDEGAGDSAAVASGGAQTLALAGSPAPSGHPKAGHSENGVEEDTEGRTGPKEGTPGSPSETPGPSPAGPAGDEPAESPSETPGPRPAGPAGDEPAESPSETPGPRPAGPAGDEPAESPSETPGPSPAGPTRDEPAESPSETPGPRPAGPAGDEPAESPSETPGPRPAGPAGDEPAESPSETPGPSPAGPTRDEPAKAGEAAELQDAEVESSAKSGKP
Put plainly: Competition for binding of [^3H]-[Met^5]-enkephalin in PANC-1 nuclear homogenates. To be noted: competition with [^3H]-[Met^5]-enkephalin; at least 2 independent assays.

With Dynorphin A1-8, the IC50/Kd is on record as >10^−4.
